ClpP mod – qHTS Assay for Activators of ClpP. ATP-dependent Clp protease proteolytic subunit (Bacillus subtilis (strain 168)), P80244. purified B. subtilis ClpP, FRET peptide cleavage, 20 min. Potency, µM (titrated, usually from 57.5 µM). 1.9% of 340,000 active; active = well fitted falling curve with a large enough effect; inconclusive = small, poorly fitted or top-dose-only effect; inactive = no such curve, though single readings can be large or run the other way; also: the source files actives as falling curves though it sought activators and does not explain the sign; nearly all actives have a fitted effect of over 65% in size
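FRET quenching reversal measured ClpP activation: 10 microg/mL B. subtilis ClpP at pH 8 with the FRET-FV decapeptide, read at 430 nm after 320 nm excitation. The 20-min minus 0-min signal was scaled between DMSO/no-enzyme wells and ADEP (5.8 microM final).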
miR-21 reporter – miR-21 reporter, rising signal | HeLa miR-21 FLuc reporter, luciferase, 48 h | Potency, µM (top dose mostly 38.3 µM) | 340,000 tested, under 10 active | AID 2288; active = well fitted rising curve with a large enough effect; inconclusive = small, poorly fitted or top-dose-only effect; inactive = no such curve, though single readings can be large or run the other way;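 further: miR-21 action dims this reporter so a rising signal means less miR-21 action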
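Using DMEM plus 10% FBS, HeLa miR-21-FLuc cells are incubated with test compounds (final up to about 40uM) for 48 hours; firefly luciferase signal is then imaged following reagent-mediated lysis.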
Nrf2 inh – Nrf2 pathway inhibition | A549 ARE-Fluc reporter, luciferase luminescence, 18-24 h | Potency, µM (highest dose often 46 µM), hits mostly inhibitors | 2.1% of 360,000 active | AID 504444; also: nearly all actives have a fitted effect of over 60% in size
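A549 ARE_Fluc cells, 5000/well, 5% FBS OPTI-MEM; compounds in dose-response, 18-24 h at 37 °C/5% CO2; CellTiter-Fluor viability read (Ex 405/Em 525), then BugLite luciferase luminescence = Nrf2 activity.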
Nrf2 activator – activates Nrf2 signaling; AREc32 ARE-luciferase reporter (MCF7-derived line), luminescence, 24 h; Potency, µM (titrated, usually from 46.1 µM), usual class: activators; 0.31% of 410,000 active; also: nearly all actives have a fitted effect of over 65% in size
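ARE-driven firefly luciferase activity in AREc32 cells measured after a 24 hr compound exposure at 37 deg C, using Steady-Glo reagent and a 30 min room-temperature hold.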
p53 reactivator – mutant p53 re-activation in reporter cells; H1299 p53-A138V BP100-luciferase reporter, luminescence, 24 h; Potency, µM (top dose mostly 92.2 µM), actives largely listed as activators; 0.063% of 320,000 active; AID 504706; also: nearly all actives have a fitted effect of over 45% in size
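H1299 (p53-null), stable ts p53-A138V + BP100-Luc; 1000 cells/well, Opti-MEM/10% FBS; cpd 4 pt, 1:5; 24 h, 37 deg C, 5% CO2; detection reagent 10 min RT; luminescence.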
A549 tox – counter-screen for Nrf2 inhibitors: cytotoxicity in A549 cells. Potency, µM (top dose mostly 46 µM), usual class: inhibitors. A549 ARE-Fluc cells, CellTiter-Fluor viability, 18-24 h. AID 504648. 0.16% of 390,000 active
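A549 ARE-Fluc cells in 5% FBS OPTI-MEM, 5000 cells/well, rested 2 h then exposed to compounds in concentration-response for 18-24 h at 37 °C. Viability by CellTiter-Fluor fluorescence (Ex 405/Em 525) after 30 min; luciferase luminescence (BugLite, 15 min, RT) read afterwards.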
Large screens that a line does not name were inactive. Sampled rows, rich in hits. Any-hit rate of the full collection: about 3.7%. Unless noted, calls follow the shape of the dose curve; as a rule, active = well fitted curve in the direction sought with a large enough effect; inconclusive = small, poorly fitted or top-dose-only effect, or another doubt; inactive = no such curve, though single readings can be large; an effect the other way counts as inactive or inconclusive.

N#CC(c1ccc(Cl)cc1)c1ccc2c(C(F)(F)F)cc(C(F)(F)F)nc2n1 (stereo not given)	miR-21 reporter inconclusive, Nrf2 inh 1.46µM, A549 tox 5.8µM
COc1ccc(NC(=O)CN2C(=O)CSc3ccc(S(=O)(=O)N(C)C)cc32)cc1Cl	none (no result: p53 reactivator)
Cc1ccc(C(=O)CN2C(=O)c3ccccc3S2(=O)=O)cc1	miR-21 reporter inconclusive, Nrf2 inh 20.6µM (no result: ClpP mod)
C=CCn1c(C)cc(C(=O)CN2C(=O)c3ccccc3S2(=O)=O)c1C	Nrf2 inh 0.651µM (no result: miR-21 reporter)
O=C(CN1C(=O)c2ccccc2S1(=O)=O)c1ccccc1	none (no result: Nrf2 inh)
COc1ccc(NC(=O)CSc2ccc3ccccc3c2)cc1S(=O)(=O)N1CCCCC1	Nrf2 inh 7.31µM
CCOc1ccc(NC(=O)CSc2nnc(C)n2C2CC2)cc1S(=O)(=O)N1CCCC1	ClpP mod 25.1µM (no result: miR-21 reporter)
O=C(Nc1ccc(Cl)c(S(=O)(=O)N2CCOCC2)c1)C1CCCC1	Nrf2 inh 23.1µM (no result: miR-21 reporter)
CCOc1ccc(NC(=O)CSc2nnnn2C2CC2)cc1S(=O)(=O)N1CCCC1	none (no result: miR-21 reporter)
O=C(CSc1ccccc1)Nc1ccc(Cl)c(S(=O)(=O)N2CCOCC2)c1	Nrf2 inh 23.1µM (no result: ClpP mod, miR-21 reporter)
CCC1CCCCN1C(=O)c1sc(-n2nc(C)c(Cc3ccccc3)c2C)nc1C (stereo not given)	none (no result: p53 reactivator)
Cc1cccc(N(CC(=O)NC(C)c2ccccc2)S(=O)(=O)c2ccccc2)c1C (stereo not given)	Nrf2 inh inconclusive, A549 tox inconclusive (no result: p53 reactivator)
CCn1cc(C(=O)Nc2ccc(OC)c(S(=O)(=O)N3CCCCC3)c2)c(=O)c2ccc(C)nc21	ClpP mod 31.6µM
CCCOc1ccc(-c2nnc(-c3ccco3)o2)cc1	ClpP mod 39.8µM, Nrf2 inh inconclusive, p53 reactivator inconclusive
CC(C)COc1ccc(-c2nnc(-c3ccco3)o2)cc1	ClpP mod 15.8µM, Nrf2 inh inconclusive, p53 reactivator inconclusive
COc1cccc(-c2nnc(-c3ccco3)o2)c1	Nrf2 inh inconclusive, Nrf2 activator inconclusive, p53 reactivator 39.8µM
COc1cccc(C(=O)Nc2ccc(-c3nnc(-c4ccco4)o3)cc2)c1	Nrf2 inh inconclusive
CC1C(=O)N(Cc2cn(CC3CCCCC3)nn2)CCS(=O)(=O)N1Cc1ccc(-c2cccc(CO)c2)cc1 (stereo not given)	none (no result: miR-21 reporter, Nrf2 inh, p53 reactivator, A549 tox)
COc1ccc(N2CCN(CCCNC(=O)C3CCC(CNc4nc(=S)[nH]c5ccccc45)CC3)CC2)cc1 (stereo not given)	Nrf2 inh 6.51µM, A549 tox inconclusive (no result: ClpP mod)
O=C(NCCc1nc2ccccc2n1Cc1ccccc1F)c1ccc(F)cc1	Nrf2 inh 23.1µM, A549 tox inconclusive (no result: p53 reactivator)
COc1c(C)cccc1C(=O)Nc1ccc(N2CCN(C(=O)c3ccccc3C)CC2)cc1	miR-21 reporter inconclusive, Nrf2 inh 20.6µM
Cc1ccccc1C(=O)N1CCN(c2ccc(NC(=O)CSc3ccc(Cl)cc3)cc2)CC1	Nrf2 inh 20.6µM
Cc1ccccc1C(=O)N1CCN(c2ccc(NC(=O)c3ccc4c(c3)OCCO4)cc2)CC1	miR-21 reporter inconclusive, Nrf2 inh 20.6µM
Cc1ccccc1C(=O)N1CCN(c2ccc(NC(=O)c3cccc(OC(C)C)c3)cc2)CC1	none
Cc1noc(C)c1COC(=O)c1ccccc1NC(=O)Cc1ccccc1	Nrf2 inh 14.6µM (no result: A549 tox)
Cc1noc(C)c1COC(=O)c1ccccc1Oc1ccccc1	none
O=C(COC(=O)COc1ccc(Cl)cc1)Nc1cccnc1Cl	none (no result: miR-21 reporter, Nrf2 inh, p53 reactivator, A549 tox)
CN1CCN(CC(=O)Nc2sc3c(c2C(=O)Nc2ccccc2)CCCC3)CC1	none
NC(=O)c1c(NC(=O)CN2CCN(S(=O)(=O)c3ccccc3)CC2)sc2c1CCC2	Nrf2 inh 18.4µM, A549 tox inconclusive (no result: miR-21 reporter)
Cc1cc(NC(=O)c2c(F)cccc2F)n(-c2nc3ccccc3[nH]2)n1	Nrf2 inh inconclusive, A549 tox inconclusive
Cc1cc(C)n(-c2nc3ccccc3[nH]c2=O)n1	ClpP mod 28.2µM
Cc1nn(-c2ccc3ccccc3c2)c(=O)c2ccccc12	Nrf2 inh inconclusive, Nrf2 activator inconclusive
Cc1cc(NC(=O)c2ccccc2F)n(-c2nc3ccccc3[nH]2)n1	none
Cc1cc(Nc2ccccc2)n(-c2nc3ccccc3[nH]2)n1	Nrf2 inh 16.4µM
Cc1cc(NC(=O)c2c(F)cccc2Cl)n(-c2nc3ccccc3[nH]2)n1	Nrf2 inh 14.6µM
Cc1nn(-c2nc3ccccc3[nH]2)c(=O)c2ccccc12	miR-21 reporter inconclusive, Nrf2 inh 1.3µM (no result: ClpP mod)
COc1ccc(-c2ccc3c(N)c(C(=O)NCc4ccc(Cl)cc4)sc3n2)cc1	none (no result: p53 reactivator)
O=C(CCCCn1c(=O)c2ccccc2n(Cc2ccccc2F)c1=O)NCc1ccccc1Cl	none (no result: p53 reactivator)
Cc1cc(NC(=O)c2ccccc2Cl)n(C(C)(C)C)n1	ClpP mod 15.8µM
CN(CC(=O)Nc1ccc(C#N)cc1)Cc1ccc(Cl)cc1	Nrf2 inh inconclusive
N#Cc1ccc(NC(=O)Nc2ccc(Cl)cc2)cc1	Nrf2 inh 18.4µM, A549 tox inconclusive
CN(CC(=O)NCCCN1CCOCC1)S(=O)(=O)c1ccc(Cl)cc1	ClpP mod 20µM (no result: miR-21 reporter)
COc1cccc(N(CC(=O)NCCN2CCOCC2)S(=O)(=O)c2ccccc2)c1	ClpP mod 17.8µM (no result: miR-21 reporter)
COc1ccc(S(=O)(=O)N(C)CC(=O)NCCN2CCOCC2)cc1	none (no result: ClpP mod)
COC(=O)c1cc(NC(=O)CN(c2cccc(OC)c2)S(=O)(=O)c2ccccc2)ccc1Cl	Nrf2 inh 23.1µM
Cc1ccc(C(=O)NCCSc2c[nH]c3ccccc23)cc1C	none (no result: p53 reactivator)
Nc1ccccc1N1C(=O)c2cccc3cccc(c23)C1=O	Nrf2 inh inconclusive, Nrf2 activator 8.91µM (no result: miR-21 reporter, p53 reactivator)
O=C(Nc1ccc(S(=O)(=O)N2CCCCC2)cc1)c1ccc(CN2CCc3ccccc3C2)cc1	ClpP mod inconclusive, miR-21 reporter inconclusive, Nrf2 inh 0.326µM
O=C(Nc1cccnc1)c1ccc(CN2CCc3ccccc3C2)cc1	Nrf2 inh 13µM
O=C(Nc1ccccc1)c1ccc(CN2CCc3ccccc3C2)cc1	none (no result: ClpP mod)
Cc1ccc(NC(=O)c2ccc(CN3CCc4ccccc4C3)cc2)cc1	Nrf2 inh inconclusive
Cc1cc(C)cc(NC(=O)c2ccc(CN3CCc4ccccc4C3)cc2)c1	Nrf2 inh 14.6µM (no result: p53 reactivator)
Clc1ccc2[nH]c3c(N4CCC5(CC4)OCCO5)ncnc3c2c1	ClpP mod 12.6µM, Nrf2 inh 20.6µM
Cc1ccc2[nH]c3c(N4CCc5ccccc5C4)ncnc3c2c1	Nrf2 inh 7.31µM
Cc1cccc2[nH]c3c(N4CCC5(CC4)OCCO5)ncnc3c12	ClpP mod inconclusive, Nrf2 inh inconclusive (no result: A549 tox)
